In ChEMBL document CHEMBL1949541, “Discovery of 7-arylsulfonyl-1,2,3,4, 4a,9a-hexahydro-benzo[4,5]furo[2,3-c]pyridines: identification of a potent and selective 5-HT₆ receptor antagonist showing activity in rat social recognition test” (Bioorg Med Chem Lett, 2012):

How the values were obtained:
[1] = Plasma clearance in rat at 1 mg/kg, iv; type: ADME, organism-based; set-up: dose 1 mg/kg, route intravenous
[2] = Efflux ratio of apparent permeability across MDCK2-MDR1 cells; type: ADME, cell-based, Canis lupus familiaris; conditions: dog, MDCK-MDR1

Work on `COc1cc(OC(C)C)cc(S(=O)(=O)c2ccc3c(c2)O[C@H]2CNCC[C@@H]32)c1.Cl` (single isomer, unassigned; enantiomer 1) yielded a clearance [1] of 41 mL/min/kg and an efflux ratio [2] of 3.
